Sequences of proteins named here, by UniProt entry; tags and fusion partners are left off.
UniProt Q9HCE7, whole entry: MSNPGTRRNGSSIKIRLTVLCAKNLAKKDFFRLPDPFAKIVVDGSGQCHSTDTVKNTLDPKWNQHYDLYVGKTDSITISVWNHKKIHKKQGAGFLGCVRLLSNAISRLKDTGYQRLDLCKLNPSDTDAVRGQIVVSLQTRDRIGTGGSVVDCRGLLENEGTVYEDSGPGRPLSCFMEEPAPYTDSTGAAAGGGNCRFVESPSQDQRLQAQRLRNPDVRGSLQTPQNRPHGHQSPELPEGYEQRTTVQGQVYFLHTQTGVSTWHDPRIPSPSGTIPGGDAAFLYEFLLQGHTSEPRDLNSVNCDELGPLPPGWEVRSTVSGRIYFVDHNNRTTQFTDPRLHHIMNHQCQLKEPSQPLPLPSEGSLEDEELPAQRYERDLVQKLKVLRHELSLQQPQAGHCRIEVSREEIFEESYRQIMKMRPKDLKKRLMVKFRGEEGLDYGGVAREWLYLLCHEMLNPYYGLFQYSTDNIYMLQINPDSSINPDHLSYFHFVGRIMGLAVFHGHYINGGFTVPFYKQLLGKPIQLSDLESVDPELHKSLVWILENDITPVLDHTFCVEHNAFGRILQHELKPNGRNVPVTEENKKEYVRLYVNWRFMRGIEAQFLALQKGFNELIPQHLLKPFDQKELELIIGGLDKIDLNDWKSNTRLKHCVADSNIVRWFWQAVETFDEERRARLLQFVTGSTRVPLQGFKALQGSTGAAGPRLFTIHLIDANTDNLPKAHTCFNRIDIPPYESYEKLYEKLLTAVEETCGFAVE

According to patent US9403810B2, “Carboxamide derivatives” (Novartis AG, priority 2014, dated 2016):

Molecular target: Smurf-1 (Homo sapiens (Human), UniProt Q9HCE7)
Test: HECT E3 ligase autoubiquitinylation TR-FRET assay (Smurf-1)
Format: biochemical
Settings: 8-point dose-response curve, 3 nM to 10 uM; 45 min incubation
Excerpt: To determine the HECT E3 ligase selectivity of the compounds, a panel of biochemical HECT E3 ligase autoubiquitinylation assays was employed (Smurf-1, Smurf-2, WWP1, WWP2, ITCH, Nedd4, Nedd4L and E6AP). The conjugation of ubiquitin to a protein substrate is a multistep process. In an initial ATP-requiring step, a thioester bond is formed between the carboxyl terminus of ubiquitin and an internal cystein residue of the ubiquitin-activating enzyme (E1). Activated ubiquitin is then transferred to a specific cystein residue of an ubiquitin-conjugating enzyme (E2). E2s donate ubiquitin to a HECT E3 ligase (E3) from which it is transferred to the substrate protein. HECT E3 ligases can auto-ubiquitinylate. This event is detected in the TR-FRET (Time-Resolved Fluorescence Resonance Energy Transfer) assay used in this panel. The reaction mix contains E1, E2, tagged-E3, biotin-conjugated ubiquitin, the compound and ATP in a suitable buffer and is incubated for 45 minutes to allow auto-ubiquitinylation of the E3 ligase. To measure the extent of ubiquitinylated E3 ligase by TR-FRET, the donor fluorophore Europium cryptate (Eu3+ cryptate), conjugated to streptavidin which subsequently binds to biotinylated ubiquitin, and the modified allophycocyanin XL665 (HTRF® primary acceptor fluorophore) coupled to a tag-specific antibody (HA, His or GST), which recognizes the respective E3 ligase fusion proteins, are added after the reaction is complete. When these two fluorophores are brought together by a bimolecular interaction (in this case ubiquitinylation of the E3 ligase), a portion of the energy captured by the Cryptate during excitation is released through fluorescence emission at 620 nm, while the remaining energy is transferred to XL665. This energy is then released by XL665 as specific fluorescence at 665 nm. Light at 665 nm is emitted only through FRET with Europium.
Test and reference compounds are prepared at 180× [final] in 90% DMSO, and diluted 1:3 in 90% DMSO.
For the biochemical assay panel, 50 nl of the test compounds, reference compounds and buffer/DMSO control are transferred to the respective wells of a 384-well white GREINER “SMALL VOLUME” PS plate. The assay panel is run at room temperature on a Biomek FX liquid handling workstation. To the assay plates containing 50 nl compound or control solutions in 90% DMSO, 4.5 ul of E3 ligase solution were added per well, followed by 4.5 ul of the pre-incubated E1/E2/Ub mix or the pre-diluted ubiquitin (LOW control). Plates are shaken vigorously after each addition. In this assay the compound concentrations range from 3 nM to 10 uM in an 8-point dose-response curve.
After 45 min of incubation the ubiquitinylation reactions were stopped by adding 4.5 ul 2 mM NEM, immediately followed by 4.5 ul of a detection solution including the XL665-labeled antibody and the streptavidin-coupled europium to give a total volume of 18 ul. After an incubation time of 45 min in the dark, the plates are transferred into the Pherastar fluorescence reader to measure the TR-FRET signal.

IC50 | SMILES
75 nM | Cc1c(C(=O)Nc2c(C)n(C)n(C3CCCCC3)c2=O)noc1[C@H]1OC[C@H](C(C)(C)C)O1 (single isomer, unassigned) [Example 25b, 5-(4-(tert-Butyl)-1,3-dioxolan-2-yl)-N-(2-cyclohexyl-1,5-dimethyl-3-oxo-2,3-dihydro-1H-pyrazol-4-yl)-4-methylisoxazole-3-carboxamide]
160 nM | Cc1c(C(=O)Nc2c(C)n(C)n(C3CCCCC3)c2=O)noc1[C@H]1C[C@H](C(C)(C)Br)CO1 (racemic) [Example 23, 5-((2R,4S)-4-(2-bromopropan-2-yl)tetrahydrofuran-2-yl)-N-(2-cyclohexyl-1,5-dimethyl-3-oxo-2,3-dihydro-1H-pyrazol-4-yl)-4-methylisoxazole-3-carboxamide and 5-((2S,4R)-4-(2-bromopropan-2-yl)tetrahydrofuran-2-yl)-N-(2-cyclohexyl-1,5-dimethyl-3-oxo-2,3-dihydro-1H-pyrazol-4-yl)-4-methylisoxazole-3-carboxamide]
74 nM | Cc1c(C(=O)Nc2c(C)n(C)n(C3CCCCC3)c2=O)noc1[C@H]1OC[C@H](C(C)(C)C)O1 (single isomer, unassigned) [Example 25d, 5-(4-(tert-Butyl)-1,3-dioxolan-2-yl)-N-(2-cyclohexyl-1,5-dimethyl-3-oxo-2,3-dihydro-1H-pyrazol-4-yl)-4-methylisoxazole-3-carboxamide]

SMILES | IC50
Cc1c(C(=O)Nc2c(C)n(C)n(C3CCCCC3)c2=O)noc1[C@H]1CC[C@@H](C)CO1 [Example 22, N-(2-cyclohexyl-1,5-dimethyl-3-oxo-2,3-dihydro-1H-pyrazol-4-yl)-4-methyl-5-((2R,5R)-5-methyltetrahydro-2H-pyran-2-yl)isoxazole-3-carboxamide] | 570 nM
Cc1c(C(=O)Nc2c(C)n(C)n(C3CCCCC3)c2=O)noc1[C@@H]1C[C@@H](C(C)C)CO1 (single isomer, unassigned) [Example 24b, N-(2-Cyclohexyl-1,5-dimethyl-3-oxo-2,3-dihydro-1H-pyrazol-4-yl)-5-((2R,4R)-4-isopropyltetrahydrofuran-2-yl)-4-methylisoxazole-3-carboxamide or N-(2-cyclohexyl-1,5-dimethyl-3-oxo-2,3-dihydro-1H-pyrazol-4-yl)-5-((2S,4S)-4-isopropyltetrahydrofuran-2-yl)-4-methylisoxazole-3-carboxamide] | 250 nM
